By UniProt entry, the sequences of proteins in these tests, tags left out. Where a name states a change or a piece, a line headed by the entry shows the natural chain unless it says otherwise.
UniProt Q01650: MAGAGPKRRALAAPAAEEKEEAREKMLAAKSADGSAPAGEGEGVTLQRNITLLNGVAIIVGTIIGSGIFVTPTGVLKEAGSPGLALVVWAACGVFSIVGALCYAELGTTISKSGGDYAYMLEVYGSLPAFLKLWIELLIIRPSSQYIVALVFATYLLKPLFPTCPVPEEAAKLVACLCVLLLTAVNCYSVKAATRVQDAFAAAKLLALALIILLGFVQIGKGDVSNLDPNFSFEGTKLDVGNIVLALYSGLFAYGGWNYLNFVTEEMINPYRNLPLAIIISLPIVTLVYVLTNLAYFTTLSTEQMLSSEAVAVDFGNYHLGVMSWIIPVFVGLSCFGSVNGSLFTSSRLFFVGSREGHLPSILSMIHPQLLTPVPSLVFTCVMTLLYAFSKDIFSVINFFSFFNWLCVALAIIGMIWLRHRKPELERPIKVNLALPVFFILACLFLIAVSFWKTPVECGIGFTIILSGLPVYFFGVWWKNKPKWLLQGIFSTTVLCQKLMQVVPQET

In PMC5076878 (Bioorganic & medicinal chemistry letters, 2016):

Target: human LAT1 (Homo sapiens, UniProt Q01650)
Type: cell-based
Conditions: compound at 200 μM; pre-loaded HEK-hLAT1 cells; at least triplicate

SMILES: N[C@@H](Cc1ccc(O)cc1)C(=O)O [Compound 1b, tyrosine, reference compound]
- Efflux Rate of [3H]-gabapentin: 2.6 ± 0.4 fmol/min
